The results in this text go back to patent US9611262B2, “Substituted 2-azabicycles and their use as orexin receptor modulators” (JANSSEN PHARMACEUTICA NV, priority 2014, dated 2017).

Amino acid sequences for entries named in this document (tags omitted).
UniProt O43613, whole entry: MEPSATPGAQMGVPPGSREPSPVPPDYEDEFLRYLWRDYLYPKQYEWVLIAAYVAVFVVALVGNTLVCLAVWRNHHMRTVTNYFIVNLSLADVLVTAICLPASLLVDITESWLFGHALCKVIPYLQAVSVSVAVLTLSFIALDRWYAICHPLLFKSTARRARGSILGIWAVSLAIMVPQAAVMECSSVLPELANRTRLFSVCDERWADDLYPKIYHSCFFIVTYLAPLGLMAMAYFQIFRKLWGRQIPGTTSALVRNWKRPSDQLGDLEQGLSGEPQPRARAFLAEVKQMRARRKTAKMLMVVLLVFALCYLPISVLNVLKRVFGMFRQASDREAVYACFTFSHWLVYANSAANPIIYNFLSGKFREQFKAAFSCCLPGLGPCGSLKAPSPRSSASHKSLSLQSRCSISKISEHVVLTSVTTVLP

One test deals with human orexin 1 receptor (Homo sapiens (Human), UniProt O43613). The test can be described thus: Human orexin 1 receptor radioligand binding (competitive). As to conditions: CHO cells stably expressing human orexin 1 receptor; 4 nM radioligand; averages of 2-20 runs; read-out: hOX1 Ki. The method, boiled down:
(§1)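 Competition binding used HEK293 cells expressing rat OX1 or CHO cells expressing human OX1, with 4 nM final [3H]-labelled thiazolyl-oxadiazolyl-pyrrolidinyl methanone radioligand in PBS. Compounds were tested at 7 concentrations (0.1 nM–10 μM) for 60 min at room temperature, then filtered; 10 μM almorexant defined nonspecific binding. Ki was derived from the one-site IC50 and the radioligand Kd.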

Another test has as its target rat orexin 1 receptor (Rattus norvegicus, UniProt P56718). The test can be described thus: Rat orexin 1 receptor radioligand binding (competitive). The conditions noted are these: HEK293 cells stably expressing rat orexin 1 receptor; 4 nM radioligand; averages of 2-20 runs; read-out: rOX1 Ki. In short, it runs like this:
as §1

On to `CC1C2CC(Nc3cnc(C(F)(F)F)cn3)C(C2)N1C(=O)c1ccccc1-n1nccn1` (racemic) [Example 5, (R/S)-(2-(2H-1,2,3-triazol-2-yl)phenyl)(3-methyl-6-((5-(trifluoromethyl)pyrazin-2-yl)amino)-2-azabicyclo[2.2.1]heptan-2-yl)methanone], for which the Ki at human orexin 1 receptor amounted to 0.011 µM; at rat orexin 1 receptor, 0.02 µM.
As to `CC1C2CC(Oc3ccc(C(F)(F)F)cn3)C(C2)N1C(=O)c1cccc(F)c1-c1ncc(F)cn1` (single isomer, unassigned) [Example 20B, (3-fluoro-2-(5-fluoropyrimidin-2-yl)phenyl)((1S*,3R*,4R*,6R*)-3-methyl-6-((5-(trifluoromethyl)pyridin-2-yl)oxy)-2-azabicyclo[2.2.1]heptan-2-yl)methanone], the Ki came to 0.006 µM at human orexin 1 receptor and 0.004 µM at rat orexin 1 receptor.
As for `CC1C2CC(Nc3cnc(C(F)(F)F)cn3)C(C2)N1C(=O)c1ccccc1-n1nccn1` (single isomer, unassigned) [Example 68A, (2-(2H-1,2,3-triazol-2-yl)phenyl)((1R*,3S*,4R*,6S*)-3-methyl-6-((5-(trifluoromethyl)pyrazin-2-yl)amino)-2-azabicyclo[2.2.1]heptan-2-yl)methanone], the Ki on human orexin 1 receptor came out at 0.308 µM; on rat orexin 1 receptor it was 0.233 µM.
The like results for `C[C@@H]1[C@H]2C[C@@H](Nc3ccc(C(F)(F)F)cn3)[C@H](C2)N1C(=O)c1ncccc1-n1nccn1` (relative stereo) [Example 64, (3-(2H-1,2,3-triazol-2-yl)pyridin-2-yl)((1S*,3R*,4S*,6R*)-3-methyl-6-((5-(trifluoromethyl)pyridin-2-yl)amino)-2-azabicyclo[2.2.1]heptan-2-yl)methanone] were, in that order, 0.004 µM and 0.004 µM.
For `CC(C)CC1C2CC(Oc3ccc(C(F)(F)F)cn3)C(C2)N1C(=O)c1cccc(F)c1-c1ncccn1` (racemic) [Example 211, (R/S)-(3-fluoro-2-pyrimidin-2-yl-phenyl)-[2-isobutyl-5-[[5-(trifluoromethyl)-2-pyridyl]oxy]-3-azabicyclo[2.2.1]heptan-3-yl]methanone] the same measures were 0.03 µM and 0.038 µM.
As for `CC1C2CC(Oc3ccc(C(F)(F)F)cn3)C(C2)N1C(=O)c1cccc(F)c1-c1ncc(F)cn1` (single isomer, unassigned) [Example 20A, (3-fluoro-2-(5-fluoropyrimidin-2-yl)phenyl)((1R*,3S*,4S*,6S*)-3-methyl-6-((5-(trifluoromethyl)pyridin-2-yl)oxy)-2-azabicyclo[2.2.1]heptan-2-yl)methanone], the Ki at human orexin 1 receptor worked out at 0.136 µM; at rat orexin 1 receptor, 0.115 µM.
The like results for `CCOc1ccc(C)nc1C(=O)N1C(C)C2CC(Oc3ccc(C(F)(F)F)cn3)C1C2` (racemic) [Example 13, (R/S)-(3-ethoxy-6-methylpyridin-2-yl)(3-methyl-6-((5-(trifluoromethyl)pyridin-2-yl)oxy)-2-azabicyclo[2.2.1]heptan-2-yl)methanone] were, in that order, 0.064 µM and 0.062 µM.
For `Cc1cnc(C(=O)N2C(C)C3CC(Nc4ccc(C(F)(F)F)cn4)C2C3)c(-n2nccn2)c1` (racemic) [Example 61, (R/S)-(5-methyl-3-(2H-1,2,3-triazol-2-yl)pyridin-2-yl)(3-methyl-6-((5-(trifluoromethyl)pyridin-2-yl)amino)-2-azabicyclo[2.2.1]heptan-2-yl)methanone] the same measures were 0.023 µM and 0.011 µM.
The like results for `[2H]C1([2H])[C@H]2C[C@@H]([C@@H]1Oc1ccc(C(F)(F)F)cn1)N(C(=O)c1ncc(C)cc1-n1nccn1)[C@@H]2C` [Example 200, [(1R,3R,4S,6R)-2,2-dideuterio-6-methyl-3-[[5-(trifluoromethyl)-2-pyridyl]oxy]-5-azabicyclo[2.2.1]heptan-5-yl]-[5-methyl-3-(triazol-2-yl)-2-pyridyl]methanone] were, in that order, 0.007 µM and 0.007 µM.
On to `C[C@@H]1[C@H]2C[C@@H](Nc3ccc(C(F)(F)F)cn3)[C@H](C2)N1C(=O)c1cccc(F)c1-n1nccn1` (relative stereo) [Example 65, (3-fluoro-2-(2H-1,2,3-triazol-2-yl)phenyl)((1S*,3R*,4S*,6R*)-3-methyl-6-((5-(trifluoromethyl)pyridin-2-yl)amino)-2-azabicyclo[2.2.1]heptan-2-yl)methanone], for which the Ki at human orexin 1 receptor and at rat orexin 1 receptor was 0.003 µM throughout.
With `CC1C2CC(Oc3ccc(C(F)(F)F)cn3)C(C2)N1C(=O)c1ncccc1-n1nccn1` (racemic) [Example 9, (R/S)-(3-(2H-1,2,3-triazol-2-yl)pyridin-2-yl)(3-methyl-6-((5-(trifluoromethyl)pyridin-2-yl)oxy)-2-azabicyclo[2.2.1]heptan-2-yl)methanone], the Ki at human orexin 1 receptor and on rat orexin 1 receptor was 0.015 µM in each case.
As to `CCOc1ccc(C)nc1C(=O)N1[C@H](C)[C@H]2C[C@@H](Oc3cnc(C(F)(F)F)cn3)[C@@H]1C2` (relative stereo) [Example 56, (3-ethoxy-6-methylpyridin-2-yl)((1S*,3R*,4R*,6R*)-3-methyl-6-((5-(trifluoromethyl)pyrazin-2-yl)oxy)-2-azabicyclo[2.2.1]heptan-2-yl)methanone], the figures for the Ki on human orexin 1 receptor and on rat orexin 1 receptor were 0.314 µM and 0.145 µM, respectively.
In the case of `Cc1cnc(-n2nccn2)c(C(=O)N2C(CF)C3CC(Oc4ccc(C(F)(F)F)cn4)C2C3)c1` (racemic) [Example 72], the Ki at human orexin 1 receptor and at rat orexin 1 receptor was 0.022 µM in each case.
On to `[2H]C1([2H])[C@H]2C[C@@H]([C@@H]1Oc1ccc(C(F)(F)F)cn1)N(C(=O)c1nc(C)ccc1-n1nccn1)[C@@H]2C` [Example 198, [(1R,3R,4S,6R)-2,2-dideuterio-6-methyl-3-[[5-(trifluoromethyl)-2-pyridyl]oxy]-5-azabicyclo[2.2.1]heptan-5-yl]-[6-methyl-3-(triazol-2-yl)-2-pyridyl]methanone], for which the Ki at human orexin 1 receptor and at rat orexin 1 receptor was 0.005 µM throughout.
Turning to `C[C@@H]1[C@H]2C[C@@H](Oc3cnc4cc(F)c(F)cc4n3)[C@H](C2)N1C(=O)c1cccc(F)c1-n1nccn1` (relative stereo) [Example 190, ((1S*,3R*,4R*,6R*)-6-((6,7-difluoroquinoxalin-2-yl)oxy)-3-methyl-2-azabicyclo[2.2.1]heptan-2-yl)(3-fluoro-2-(2H-1,2,3-triazol-2-yl)phenyl)methanone], the Ki was 0.008 µM at human orexin 1 receptor and 0.01 µM at rat orexin 1 receptor.
Turning to `CC1C2CC(Oc3ccc(C(F)(F)F)cn3)C(C2)N1C(=O)c1ccccc1-c1ncccn1` (racemic) [Example 15, (R/S)-(3-methyl-6-((5-(trifluoromethyl)pyridin-2-yl)oxy)-2-azabicyclo[2.2.1]heptan-2-yl)(2-(pyrimidin-2-yl)phenyl)methanone], the Ki was found to be 0.011 µM at human orexin 1 receptor and 0.012 µM at rat orexin 1 receptor.
For `Cc1ccc(-n2nccn2)c(C(=O)N2C(CF)C3CC(Oc4ccc(C(F)(F)F)cn4)C2C3)n1` (racemic) [Example 70] the same measures were 0.03 µM and 0.021 µM.
For `Cc1ccc(-n2nccn2)c(C(=O)N2C(C)C3CC(Nc4cnc(C(F)(F)F)cn4)C2C3)n1` (single isomer, unassigned) [Example 6B, (6-methyl-3-(2H-1,2,3-triazol-2-yl)pyridin-2-yl)((1S*,3S*,4S*,6R*)-3-methyl-6-((5-(trifluoromethyl)pyrazin-2-yl)amino)-2-azabicyclo[2.2.1]heptan-2-yl)methanone] the same measures were 0.036 µM and 0.022 µM.
Take `Cc1ccc(-n2nccn2)c(C(=O)N2C(C)C3CC(Nc4cnc(C(F)(F)F)cn4)C2C3)n1` (single isomer, unassigned) [Example 6, (R/S)-(6-methyl-3-(2H-1,2,3-triazol-2-yl)pyridin-2-yl)(3-methyl-6-((5-(trifluoromethyl)pyrazin-2-yl)amino)-2-azabicyclo[2.2.1]heptan-2-yl)methanone]: the Ki at human orexin 1 receptor is 0.083 µM; on rat orexin 1 receptor, 0.09 µM.
In the case of `C[C@@H]1[C@H]2C[C@@H](Oc3cnc4cc(F)c(F)cc4n3)[C@H](C2)N1C(=O)c1ccccc1-n1nccn1` (relative stereo) [Example 191, (2-(2H-1,2,3-triazol-2-yl)phenyl)((1S*,3R*,4R*,6R*)-6-((6,7-difluoroquinoxalin-2-yl)oxy)-3-methyl-2-azabicyclo[2.2.1]heptan-2-yl)methanone], the Ki on human orexin 1 receptor and on rat orexin 1 receptor was 0.01 µM throughout.
Take `CC1C2CC(Nc3cnc(C(F)(F)F)cn3)C(C2)N1C(=O)c1ccccc1-n1nccn1` (single isomer, unassigned) [Example 5B, (2-(2H-1,2,3-triazol-2-yl)phenyl)((1S*,3S*,4S*,6R*)-3-methyl-6-((5-(trifluoromethyl)pyrazin-2-yl)amino)-2-azabicyclo[2.2.1]heptan-2-yl)methanone]: the Ki is 0.012 µM on human orexin 1 receptor and 0.011 µM on rat orexin 1 receptor.
Regarding `CC1C2CC(Oc3ccc(C(F)(F)F)cn3)C(C2)N1C(=O)c1ccc(F)cc1-c1ncccn1` (single isomer, unassigned) [Example 17B, (4-fluoro-2-(pyrimidin-2-yl)phenyl)((1S*,3R*,4R*,6R*)-3-methyl-6-((5-(trifluoromethyl)pyridin-2-yl)oxy)-2-azabicyclo[2.2.1]heptan-2-yl)methanone], the Ki at human orexin 1 receptor and at rat orexin 1 receptor was 0.004 µM in each case.
